{"source": "ChEMBL document CHEMBL1133118", "about": "(J Med Chem, 2000)", "target": "T1, Adenosine receptor A2b (Homo sapiens, UniProt P29275)", "T1 sequence (P29275 whole entry)": "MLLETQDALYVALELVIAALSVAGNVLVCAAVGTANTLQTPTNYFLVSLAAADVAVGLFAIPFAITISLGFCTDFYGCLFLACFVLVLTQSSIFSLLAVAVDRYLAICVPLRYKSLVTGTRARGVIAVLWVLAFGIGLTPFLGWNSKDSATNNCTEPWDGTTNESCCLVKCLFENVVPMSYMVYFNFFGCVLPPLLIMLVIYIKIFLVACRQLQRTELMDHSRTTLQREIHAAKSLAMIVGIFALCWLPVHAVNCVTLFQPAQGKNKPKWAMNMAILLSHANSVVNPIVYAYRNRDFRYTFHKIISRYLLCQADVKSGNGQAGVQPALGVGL", "experiment": "biochemical", "data": [{"smiles": "Nc1nc2ccc(Cl)cc2c2nc(-c3ccco3)nn12", "note": "[CGS-15943]", "values": [{"measurement": "Ki", "result": 23, "unit": "nM"}]}]}
